From PubChem BioAssay
E-selectin induc = E-selectin induction on HUVECs; P16581; HUVEC E-selectin immunofluorescence imaging; normalized: neutral wells 0, TNF-alpha wells 100; activation, % at 7.58 µM; hit rate 0.37% among 260,000; AID 686992;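 active = mean E-selectin-positive cell signal at least 10% of the positive control, reached in at least 60% of replicates, without over 20% cell loss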
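System: HUVEC / Compound: single concentration / Signal: immunofluorescence imaging / Read-out: percent E-selectin-positive cells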
Xi reactivation = X-chromosome reactivation activator | XiGFP mouse fibroblasts, % GFP-positive cells imaging, 3 d; cells co-treated with 5-aza-dC sensitizer; scaled so ellipticine positive control = 100% | activation, % at 7.58 µM | hit rate 0.055% among 360,000;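 active = mean normalized replicate activation at least 10% and every replicate at or above 10%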
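Assay system – SV40-immortalized XiGFP fibroblast cells, line 68-5-11 · Buffer or medium – DMEM supplemented with 5-aza-dC as sensitizing agent · Dosing – one concentration, pinned · Benchmarks – positive control ellipticine, 6 µM final · Times – 3 days compound exposure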
Yeast UUG start = yeast start codon fidelity modulation | S. cerevisiae UUG-firefly luciferase reporter, luminescence/redox ratio | activity score, % at 18.7 µM | hit rate 0.13% among 350,000 | AID 602363;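 active means replicate mean at a twofold rise or more, about +100% in these data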;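 further: firefly luciferase made from a UUG start codon reports start codon fidelity; reporter light over untreated wells divided by growth signal over untreated wells; some hits fall short of that in this replicate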
RAD54 branch = blocks human RAD54 Holliday junction branch migration; Q92698; FAM/BHQ fluorescence; inhibition, % at 10.4 µM; hit rate 0.14% among 360,000; AID 602329;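 active = mean normalized replicate activity at least 40 and at least half of replicates scoring 40 or more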;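 note: inhibitors cause a drop in the FAM fluorescence signal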
RAD52 inh = inhibitors of human RAD52 DNA annealing. recombinant RAD52 DNA annealing, FRET fluorescence. P43351. hit rate 0.46% among 360,000. inhibition, % at 18.7 µM. AID 651710;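 active = every replicate showing at least 50% inhibition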
Hits are given with their value; – = inactive; · = not tested or not shown. This is a sample that favours compounds with a hit; in the whole collection about 0.73% have one here.

SMILES	E-selectin induc	Xi reactivation	Yeast UUG start	RAD54 branch	RAD52 inh
O=C(Nc1ccc(F)cc1)Nc1ccc2c(c1)[C@H]1C[C@@H](CC(=O)N3CCCCC3)O[C@@H](CO)[C@H]1O2	–	–	–	–	·
Cc1cccc(C)c1-n1nnnc1-c1nc2ccccc2[nH]c1=O	49	–	·	·	–
C[C@H](CO)N1C[C@H](C)[C@H](CN(C)C(=O)CN(C)C)Oc2cc(C#Cc3ccc(F)cc3)ccc2S1(=O)=O	–	–	–	–	60
C[C@@H]1CN([C@H](C)CO)S(=O)(=O)c2ccc(C#Cc3ccc(F)cc3)cc2O[C@@H]1CN(C)C(=O)CN(C)C	–	–	–	–	65
C[C@H]1CN([C@@H](C)CO)S(=O)(=O)c2ccc(C#Cc3ccc(F)cc3)cc2O[C@@H]1CN(C)C(=O)CN(C)C	–	–	–	–	65
O=C(C[C@@H]1C[C@@H]2c3cc(NC(=O)C4CCC4)ccc3O[C@@H]2[C@H](CO)O1)NCc1cc(F)ccc1F	–	–	–	–	–
C[C@H]1CN([C@@H](C)CO)C(=O)Cc2cc(NC(=O)C3CC3)ccc2O[C@H]1CN(C)S(=O)(=O)c1cn(C)cn1	–	–	–	–	–
O=C(CCl)Nc1ccccc1Sc1ccccc1	·	·	509	–	·
C[C@H]1CN([C@@H](C)CO)C(=O)c2cc(-c3ccccc3)cnc2O[C@@H]1CN(C)Cc1ccccc1	–	–	–	–	–
Cc1ccnc(NC(NC(=O)C(C)C)(C(F)(F)F)C(F)(F)F)c1	136	–	·	·	–
COC(=O)C(NC(=O)c1ccco1)(Nc1cc(C)ccn1)C(F)(F)F (stereo unspecified)	·	·	–	–	·
CCCN(C)C[C@@H]1Oc2ncc(C#Cc3cccc(OC)c3)cc2C(=O)N([C@H](C)CO)C[C@@H]1C	–	–	·	·	53
CCCN(C)C[C@@H]1Oc2ncc(C#Cc3ccccc3OC)cc2C(=O)N([C@H](C)CO)C[C@@H]1C	·	·	–	–	57
Cc1cccc(CN(C)C[C@@H]2Oc3ncc(C#Cc4ccccc4)cc3C(=O)N([C@H](C)CO)C[C@@H]2C)c1	–	15	–	–	–
Cc1cccc(CN(C)C[C@@H]2Oc3ncc(C#CCN(C)C)cc3C(=O)N([C@H](C)CO)C[C@@H]2C)c1	–	–	·	·	·
CC(C)NC(=O)Nc1cccc2c1O[C@@H](CN(C)Cc1ccc(C(F)(F)F)cc1)[C@H](C)CN([C@H](C)CO)C2=O	29	–	–	–	–
COc1ccc(NC(=O)Nc2cccc3c2O[C@@H](CN(C)C(=O)NC2CCCCC2)[C@H](C)CN([C@H](C)CO)C3=O)cc1	49	–	–	–	–
CC(C)NC(=O)Nc1cccc2c1O[C@@H](CN(C)Cc1ccc(Cl)c(Cl)c1)[C@H](C)CN([C@H](C)CO)C2=O	–	–	·	–	–
CC(C)NC(=O)Nc1cccc2c1O[C@@H](CN(C)Cc1ccc(C(F)(F)F)cc1)[C@@H](C)CN([C@@H](C)CO)C2=O	–	–	–	–	–
COc1ccc(CN(C)C[C@H]2Oc3c(NC(=O)Nc4ccc(C(F)(F)F)cc4)cccc3C(=O)N([C@H](C)CO)C[C@H]2C)cc1	–	–	–	–	–
CC(C)NC(=O)Nc1cccc2c1O[C@@H](CN(C)Cc1ccc(Cl)c(Cl)c1)[C@@H](C)CN([C@H](C)CO)C2=O	44	–	·	–	–
COc1ccc(NC(=O)Nc2cccc3c2O[C@@H](CN(C)Cc2ccc(C(F)(F)F)cc2)[C@@H](C)CN([C@@H](C)CO)C3=O)cc1	–	–	–	–	87
CC(C)NC(=O)N(C)C[C@@H]1Oc2ccc(NS(=O)(=O)c3cn(C)cn3)cc2C(=O)N([C@H](C)CO)C[C@H]1C	–	–	–	–	–
COc1ccc(NC(=O)Nc2cccc3c2O[C@@H](CN(C)Cc2ccc(C(=O)Nc4ccccc4N)cc2)[C@@H](C)CN([C@H](C)CO)C3=O)cc1	–	–	·	·	–
C[C@H]1CN([C@@H](C)CO)C(=O)c2cccc(NC(=O)c3nc4ccccc4s3)c2O[C@@H]1CN(C)Cc1ccc(C(F)(F)F)cc1	48	–	–	–	–
SMILES	E-selectin induc	Xi reactivation	Yeast UUG start	RAD54 branch	RAD52 inh
C[C@H](CO)N1C[C@H](C)[C@@H](CN(C)Cc2ccc(-c3ccccc3)cc2)Oc2c(NC(=O)Nc3cccc4ccccc34)cccc2C1=O	90	–	–	·	·
COc1ccc(NC(=O)Nc2cccc3c2O[C@H](CN(C)Cc2ccc(C(=O)Nc4ccccc4N)cc2)[C@H](C)CN([C@H](C)CO)C3=O)cc1	34	–	–	–	–
C[C@@H]1CN([C@@H](C)CO)C(=O)c2cccc(NC(=O)c3nc4ccccc4s3)c2O[C@H]1CN(C)Cc1ccc(C(F)(F)F)cc1	–	–	–	–	–
C[C@@H]1CN([C@@H](C)CO)S(=O)(=O)c2ccc(C#CCN(C)C)cc2O[C@H]1CN(C)Cc1ccccc1	–	–	–	–	–
Cn1c(=O)c2[nH]c(-c3ccc(S(=O)(=O)O)cc3)nc2n(C)c1=O	–	23	–	–	–
COc1cccc(NS(=O)(=O)c2ccc3c(c2)CCCN3C(C)=O)c1	·	·	·	·	–
COc1ccc(NS(=O)(=O)c2ccc3c(c2)CCCN3C(C)=O)cc1	121	–	–	–	–
CC(C)CN(CCNC(=O)c1cn(C)c2ccc(S(=O)(=O)N3CCCC3)cc2c1=O)CC(C)C	–	–	–	–	–
CC(C)CCNC(=O)c1cn(C)c2ccc(S(=O)(=O)N3CCCC3)cc2c1=O	37	–	–	–	–
CCCC(=O)N1CCC2(CC1)CN(C(=O)CC1CC1)[C@H](CO)c1c2c2ccc(OC)cc2n1C	–	–	·	·	–
CC(C)OC(=O)c1cccnc1N1CCN(c2cccc(Cl)c2)CC1	34	–	·	·	–
CSc1ccc(/C=N/NC(=O)c2ccc3nc[nH]c3c2)cc1	40	–	–	–	–
O=C(Cc1ccncc1)NCC[C@@H]1CC[C@@H](NC(=O)Nc2ccc(F)cc2)[C@H](CO)O1	–	–	–	–	–
CCCN1[C@H](C(=O)N(C)C)[C@@H](CO)[C@@H]2Cn3c(ccc(C4=CCCCC4)c3=O)[C@@H]21	–	–	·	·	–
CCN(CC)c1ccc(/C=C/c2cc(-c3ccccc3)c3ccccc3n2)cc1	·	95	–	–	–
CC(C)NC(=O)N(C)C[C@@H]1Oc2c(NS(=O)(=O)c3cccs3)cccc2C(=O)N([C@@H](C)CO)C[C@@H]1C	–	–	–	·	·
COc1ccc(NS(=O)(=O)c2cccc(Cl)c2Cl)cc1S(=O)(=O)N1CCCCC1	134	–	·	·	–
O=C(Nc1ccc(F)cc1)Nc1ccc2c(c1)[C@@H]1C[C@H](CC(=O)N3CCOCC3)O[C@H](CO)[C@@H]1O2	–	–	–	–	–
COc1ccc(OCC(O)CNC(=O)c2ccccc2)cc1 (stereo unspecified)	77	–	·	·	–
COc1ccc(CN(C)C[C@H]2Oc3ccc(NC(=O)Nc4ccc(F)cc4)cc3CC(=O)N([C@@H](C)CO)C[C@H]2C)cc1	·	·	–	–	–
